For this assay, the target named is T1, Nuclear receptor subfamily 1 group D member 1 (Homo sapiens, UniProt P20393).
T1 sequence (P20393 whole entry): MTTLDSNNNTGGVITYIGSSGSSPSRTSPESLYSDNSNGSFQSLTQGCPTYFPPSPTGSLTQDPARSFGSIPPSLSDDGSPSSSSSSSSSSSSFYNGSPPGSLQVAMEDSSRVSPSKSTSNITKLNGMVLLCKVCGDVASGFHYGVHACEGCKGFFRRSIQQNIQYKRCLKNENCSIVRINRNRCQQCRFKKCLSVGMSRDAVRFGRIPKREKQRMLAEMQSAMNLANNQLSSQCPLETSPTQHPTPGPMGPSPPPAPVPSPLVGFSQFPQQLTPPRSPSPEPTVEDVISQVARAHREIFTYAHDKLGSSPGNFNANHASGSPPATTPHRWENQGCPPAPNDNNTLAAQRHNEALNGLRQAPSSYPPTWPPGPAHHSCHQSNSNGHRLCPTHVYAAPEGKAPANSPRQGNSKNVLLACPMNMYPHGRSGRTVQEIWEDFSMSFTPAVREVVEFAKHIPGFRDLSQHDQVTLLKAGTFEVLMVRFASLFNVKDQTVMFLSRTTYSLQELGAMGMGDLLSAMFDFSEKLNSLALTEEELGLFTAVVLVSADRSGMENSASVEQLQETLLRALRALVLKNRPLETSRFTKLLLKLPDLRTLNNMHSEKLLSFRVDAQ
Nature of the assay: Agonist activity at biotinylated REV-ERBalpha (unknown origin) assessed as increase in biotinylated NCOR peptide recruitment after 1 hr by FRET assay. The procedure, abridged: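 TR-FRET: 20 nM biotinylated REV-ERBα pre-complexed with 10 nM APC-streptavidin, excess biotin added, then mixed with 20 nM biotinylated NCOR1 on 10 nM Eu-streptavidin. MOPS pH 7.5 buffer with NaF, CHAPS, BSA and 10 mM DTT. Added to compound (serial DMSO dilutions of 10 mM stocks), 1 h at RT, Eu/APC read. Data normalized to basal and minimal HTRF, fitted to a 4-parameter logistic.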

Molecules are shown by their SMILES. Where only a bound is given, the exact number is not on record here.

In general, EC50 refers to the concentration that produces a half-maximal response.

Consider `CCOC(=O)N1CCC(CN(Cc2ccc(Cl)cc2)Cc2ccc([N+](=O)[O-])s2)C1` (stereo unspecified) [SR9009], for which the half-maximal effective concentration (EC50) is over 50 µM.

The values are drawn from ChEMBL document CHEMBL2380244, “Optimized chemical probes for REV-ERBα” (J Med Chem, 2013).
